Protein sequences, listed by entry. Tags and fused reporters are not part of them.
Guanine nucleotide-binding protein G(i) subunit alpha-3 (Rattus norvegicus), P08753, UniProt P08753, whole entry, looked up: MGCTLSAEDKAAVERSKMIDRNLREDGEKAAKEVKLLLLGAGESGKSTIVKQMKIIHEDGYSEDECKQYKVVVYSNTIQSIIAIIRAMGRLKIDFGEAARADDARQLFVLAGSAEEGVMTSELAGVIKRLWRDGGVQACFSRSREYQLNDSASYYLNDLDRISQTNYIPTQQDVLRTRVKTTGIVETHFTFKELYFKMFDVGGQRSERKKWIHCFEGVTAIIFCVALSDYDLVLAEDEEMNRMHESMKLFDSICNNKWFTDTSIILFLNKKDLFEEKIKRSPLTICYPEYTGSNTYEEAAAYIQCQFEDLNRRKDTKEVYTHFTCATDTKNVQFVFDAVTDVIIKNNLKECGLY

# GIV-Gai inh: inhibitors of GIV peptide binding to Galpha-i3, primary screen, biochemical, fluorescence polarization, FITC-GIV GBA peptide, rat Galphai3; hit rate 0.42% among 210,000; percent of control (FP), % (concentration not given with the values); 90 min; stronger effect = lower value; scaled: aluminum fluoride 0%, vehicle 100%; Guanine nucleotide-binding protein G(i) subunit alpha-3 (Rattus norvegicus), P08753;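 active = replicate mean at 85% of control or lower, very high polarization wells dropped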;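 note: wells of about 15 µL received 100 nL stock; the first replicate is given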
# HCMV UL50-53 inh: disrupts HCMV UL50-UL53 complex binding; 0.15% of 190,000 active; inhibition, % (test concentration not listed); HTRF UL50-UL53 interaction, normalized percent inhibition; in the data active = inhibition above about 27%, passing the limit was not always enough
# GIV Gai FP conf: confirmation of inhibitors of GIV binding to rat Galpha-i3 | AID 1259350 | FITC-GIV peptide binding to Galphai3, fluorescence polarization; stronger effect = lower value | fluorescence polarization, mP at 100 µM | 38% of 580 active | shares compounds with GIV-Gai inh;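 active = inhibition score of 15 or more, meaning 100 minus mean polarization as percent of control over three replicates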
# GIV Gai AS conf: confirmation of inhibitors of GIV binding to human Galpha-i3 | shares compounds with GIV-Gai inh | AlphaScreen Galphai3-GIV binding, purified proteins, 90 min; stronger effect = lower value | AlphaScreen counts at 100 µM | 39% of 580 active;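 active = inhibition score at or above a set limit, where the score is 100 minus the three-replicate mean percent of control signal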
# An asterisk follows results filed as active; / = no result. Hits are enriched below; roughly 0.46% of the tested compounds scored in any of these assays.
# Short keys: A = GIV-Gai inh; B = HCMV UL50-53 inh; C = GIV Gai FP conf; D = GIV Gai AS conf
CCn1c(SCC(=O)OC)nnc1-c1ccco1
  A = 99.2; B = -30.1; C = /; D = /

CCCN1CCC2(CC1)C1CN(CCC)CC=C1C(C#N)=C(N)C2(C#N)C#N (centres undefined)
  A = 87.8; B = -47.2; C = 60.5; D = 50169

CCOc1ccc(C2C3CN(CC)CC=C3C(C#N)=C(N)C2(C#N)C#N)cc1 (centres undefined)
  A = 125.0; B = /; C = /; D = /

CN(C)S(=O)(=O)c1ccc(C(=O)Nc2c(C#N)oc3ccccc23)cc1
  A = /; B = -13.9; C = /; D = /

COc1cc(/C=C2\Sc3ccccc3C2=O)cc(Br)c1O
  A = 195.8; B = -40.3; C = /; D = /

CC(O)CNc1c[nH]c(=O)[nH]c1=O (centres undefined)
  A = 100.3; B = -20.6; C = /; D = /

O=c1[nH]cc(NCCO)c(=O)[nH]1
  A = 66.0*; B = -7.3; C = 43.6*; D = 47941

COc1cc(C(=O)Nc2cc(C)c3c(=O)oc4ccccc4c3n2)cc(OC)c1OC
  A = 152.4; B = 11.7; C = 72.9; D = 37152

Cc1ccccc1C(=O)Nc1cc(C)c2c(=O)oc3ccccc3c2n1
  A = 109.4; B = /; C = /; D = /

O=C1CC(=O)c2ccc3c4c(ccc1c24)C(=O)CC3=O
  A = 74.2*; B = -46.5; C = 53.2*; D = 2272*

Nc1ccc2c(c1)CCC2=O
  A = 144.5; B = -20.9; C = /; D = /

Oc1ccccc1C=NCc1csc2ccccc12
  A = 101.5; B = -5.0; C = /; D = /

COc1cccc(NC(=O)CCc2c(C)n(C)c3cc(-c4ccccc4OC)nn3c2=O)c1
  A = 104.0; B = /; C = /; D = /

COc1ccccc1NC(=O)c1c(N=Cc2c(O)ccc3ccccc23)cnn1C
  A = 107.7; B = /; C = /; D = /

Oc1ccc2ccccc2c1C=Nc1cccn2cc(-c3ccccc3)nc12
  A = -9.9*; B = /; C = 9.83*; D = 37990

CCn1c(C(=O)Nc2cc(C)ccc2C)cc2sc(Cl)cc21
  A = 109.3; B = 0.1; C = /; D = /

CCCc1[nH]n(-c2ccc(F)cc2)c(=O)c1C=NCc1ccc(Cl)cc1
  A = 107.5; B = /; C = /; D = /

CC1=CC(=C2N=C(c3ccccc3)OC2=O)C=C(C)O1
  A = 73.4*; B = -15.8; C = 71.6; D = 40445

O=C1OC(c2ccccc2)=N/C1=C1/OC(=O)c2ccccc21
  A = /; B = -20.0; C = /; D = /

Cn1c(=O)n(Cc2ccc(Cl)cc2)c(=O)c2cnc(-c3cccnc3)nc21
  A = 105.7; B = /; C = /; D = /

O=C(NCCn1ccc2ccccc21)c1ccc(F)cc1
  A = 60.3*; B = /; C = 64.3; D = 37703

Cc1ccc(C(=O)NCCn2ccc3ccccc32)cc1
  A = 94.5; B = /; C = /; D = /

CC(C)OC(=O)c1cc2c(OCC(O)CNC(C)(C)C)cccc2[nH]1 (centres undefined)
  A = /; B = -14.4; C = /; D = /

CC(C)=NNC(=O)Cc1c[nH]c2cccc(OCC(O)CNC(C)(C)C)c12 (centres undefined)
  A = 90.5; B = -25.8; C = 76.3; D = 32755

Cc1ccc(-c2cc3c(N4CCC(C(=O)NC5CCCC5)CC4)nccn3n2)cc1C
  A = 112.8; B = -10.0; C = /; D = /

CCCOc1ccc(CNC(=O)C(NS(=O)(=O)c2cccs2)C(C)C)cc1 (centres undefined)
  A = 84.5*; B = /; C = 81.8; D = 35946

CC(C)C(NS(=O)(=O)c1cccs1)C(=O)NCc1cccnc1 (centres undefined)
  A = 105.5; B = 4.5; C = /; D = /

Cc1oc2ncnc(N3CCC(C(=O)Nc4ccccc4Cl)CC3)c2c1C
  A = 100.9; B = -28.8; C = /; D = /

CC1CC(C)CN(C(=O)CSC2=NCCS2)C1 (centres undefined)
  A = /; B = -23.0; C = /; D = /

Cc1cc(C(F)(F)F)c2c(n1)sc1c(O)cc(=O)[nH]c12
  A = 108.5; B = /; C = /; D = /

O=c1cc(O)c2sc3nc(-c4ccco4)cc(C(F)(F)F)c3c2[nH]1
  A = 71.9*; B = -64.0; C = 59.9*; D = 5742*

Cc1ccc(N2C(=O)c3ccccc3C2Nc2ccc(S(=O)(=O)N3CCCCCC3)cc2)nc1 (centres undefined)
  A = 110.9; B = -3.5; C = /; D = /

O=[N+]([O-])c1cc(S(=O)(=O)O)cc2c1-c1c(cc(S(=O)(=O)O)cc1[N+](=O)[O-])C2
  A = 86.1; B = /; C = 62.2; D = 17742*

O=C1c2cc(S(=O)(=O)N3CCCCC3)cc([N+](=O)[O-])c2-c2c1cc(S(=O)(=O)N1CCCCC1)cc2[N+](=O)[O-]
  A = 109.4; B = /; C = /; D = /

CN(c1ccc(Br)cc1)S(=O)(=O)c1ccc2[nH]cc(C(=O)NCc3ccccn3)c(=O)c2c1
  A = 64.0*; B = /; C = 47.6*; D = 60749

CCCCCCNC(=O)c1c[nH]c2ccc(S(=O)(=O)N(C)c3ccc(Br)cc3)cc2c1=O
  A = 111.6; B = /; C = /; D = /

O=S(=O)(c1cccn2c(SCc3ccccc3F)nnc12)N1CCCCC1
  A = 100.4; B = /; C = /; D = /

Nc1ccc2nsnc2c1
  A = 46.4*; B = 96.1*; C = 5.43*; D = 3926*

Nc1nnc(-c2ccc3nsnc3c2)o1
  A = 105.9; B = 1.8; C = /; D = /

CCN(CC)CCNC(=O)CSc1nc2ccccc2n(CC)c1=O
  A = 107.9; B = -24.1; C = /; D = /

Oc1ccc(Cl)cc1C=Nc1cccc2nsnc12
  A = 73.9*; B = 26.4; C = 58.3*; D = 6922*

Cc1ccc(C=Nc2cccc3nsnc23)c(O)c1
  A = 101.3; B = -32.7; C = /; D = /

COc1ccc(N2CCN(S(=O)(=O)c3cc(C(=O)Nc4ccc(Br)cc4)ccc3F)CC2)cc1
  A = 101.0; B = /; C = /; D = /

CCN1C=CC2=C(C#N)C(N)C(C#N)(C#N)C(c3cccs3)C2C1 (centres undefined)
  A = 65.0*; B = -50.6; C = 64.2; D = 28433

CCOC(=O)N1CC=C2C(C#N)=C(N)C(C#N)(C#N)C(c3cccs3)C2C1 (centres undefined)
  A = 106.8; B = /; C = /; D = /

CCOC(=O)c1cccc(-c2ccc(/C=C3\C(=O)N(c4cccc(C(=O)O)c4)N=C3C)o2)c1
  A = 92.9; B = -26.9; C = /; D = /

COC(=O)c1ccc(N2N=C(C)/C(=C/c3ccc(-c4cccc(C(=O)O)c4)o3)C2=O)cc1
  A = 85.6; B = -20.0; C = 56.2; D = 18724*

O=C(Nc1cccc2nsnc12)c1nc2ccccc2nc1N1CCOCC1
  A = 28.4*; B = -26.4; C = 69.4; D = 40962

O=C(Nc1cccc2nsnc12)c1nc2ccccc2nc1N1CCCC1
  A = 99.7; B = -37.0; C = /; D = /

O=C(Nc1cccc(F)c1)c1cccc(Nc2ncc(-c3ccc(F)cc3)cn2)c1
  A = 104.4; B = /; C = /; D = /

# Next part.
# Short keys: A = GIV-Gai inh; B = HCMV UL50-53 inh; C = GIV Gai FP conf; D = GIV Gai AS conf
CCCCOc1ccc(C2=N/C(=C\c3ccc(OC)c(OC(C)=O)c3)C(=O)O2)cc1
  A = 102.0; B = -32.6; C = /; D = /

CCCCOc1ccc(C2=N/C(=C\c3ccc(OC(C)=O)c(OC(C)=O)c3)C(=O)O2)cc1
  A = 72.0*; B = -26.4; C = 68.9; D = 51880

Cc1cc(N2Cc3ccccc3C2)ccc1/C=C1/C(=O)NC(=O)N(C2CCCCC2)C1=O
  A = 86.9; B = /; C = 71.3; D = 48945

Cc1ccc(/C=C2/C(=O)NC(=O)N(C3CCCCC3)C2=O)cc1
  A = 100.5; B = -0.6; C = /; D = /

O=C(O)c1ccc(CSc2n[nH]c(-c3ccco3)n2)cc1
  A = 78.4*; B = 5.3; C = 57.5*; D = 2493*

CCOC(=O)CSc1n[nH]c(-c2ccco2)n1
  A = 103.7; B = /; C = /; D = /

Cc1ccc(NC(=O)N2CCC3(CC2)CC(=O)c2ccccc2O3)cc1Cl
  A = 99.8; B = -2.6; C = /; D = /

COc1ccc(S(=O)(=O)Nc2cc(C(=O)O)cnc2N2CCCC2)cc1
  A = 115.6; B = -41.5; C = /; D = /

CCOC(=O)[C@@H]1Nc2ccc(C(=O)O)cc2[C@@H]2C=CC[C@H]12
  A = 63.0*; B = /; C = 50*; D = 2184*

CCOC(=O)[C@@H]1Nc2ccc(Br)cc2[C@@H]2C=CC[C@H]12
  A = 124.7; B = -44.0; C = /; D = /

# Two compounds drawn at random from the list so far, as already listed:
# Short keys: A = GIV-Gai inh; B = HCMV UL50-53 inh; C = GIV Gai FP conf; D = GIV Gai AS conf
CCCCOc1ccc(C2=N/C(=C\c3ccc(OC)c(OC(C)=O)c3)C(=O)O2)cc1
  A = 102.0; B = -32.6; C = /; D = /

Cc1ccc(/C=C2/C(=O)NC(=O)N(C3CCCCC3)C2=O)cc1
  A = 100.5; B = -0.6; C = /; D = /

# Two entries from above, bar-delimited.
smiles | GIV-Gai inh | HCMV UL50-53 inh | GIV Gai FP conf | GIV Gai AS conf
COc1ccc(S(=O)(=O)Nc2cc(C(=O)O)cnc2N2CCCC2)cc1 | 115.6 | -41.5 | / | /
O=C(O)c1ccc(CSc2n[nH]c(-c3ccco3)n2)cc1 | 78.4* | 5.3 | 57.5* | 2493*

# (cont.)
# Short keys: A = GIV-Gai inh; B = HCMV UL50-53 inh; C = GIV Gai FP conf; D = GIV Gai AS conf
COc1ccc(-n2c(SCc3ccc(C#N)cc3)nc3ccccc32)cc1
  A = /; B = -12.6; C = /; D = /

CCCNC(=O)Cn1c(-c2cccs2)cc2ccccc21
  A = 111.4; B = -6.6; C = /; D = /

COC(=O)CNC(=O)NCCCn1c(C(F)(F)F)nc2cccnc21
  A = 80.4*; B = -7.7; C = 59.2*; D = 26853

O=C(NCCc1ccccc1)NCCn1c(C(F)(F)F)nc2cccnc21
  A = 116.1; B = -2.0; C = /; D = /
